The values that follow come from patent US20240316213A1, “ANTIBODY-PROTAMINE FUSIONS AS TARGETING COMPOUNDS OF A PROTAMINE-BASED NANOPARTICLE” (Universität Münster, priority 2021, published 2024).

In test [1] the target is EGFR (epithelial growth factor receptor) on cells (UniProt P00533). The experiment in a line: cell-based or functional assay.
For test [2] the target is unchanged. The experiment in a line: cell-based or functional assay. This is another data set of the same source.

Where two headings read alike, the source gives them in different places.

In the case of “cetuximab (anti-EGFR-mAB)-SMCC-protamine conjugate (antibody)”, the results for the internalisation of Alexa488-siRNA into RD cells (FACS) in test [1] and in test [2] were < 90 % of cells and > 90 % of cells, respectively.
